Consider one molecule from patent publication US20100093014A1, “SCREENING FOR BONE ANABOLIC FACTORS” (NORDIC BIOSCIENCE IMAGING A/S, priority 2007, published 2010).

The test system of test [1] is MC-3T3-E1 cells. Description: Bone nodule formation by MC-3T3-E1 cells, Alizarin Red. Format: cell-based, murine. As to conditions: three weeks culture, BMP-2 at 10 ng/mL, CM in the indicated concentrations. As to the method:
(§1) The pre-osteoblast murine MC-3T3-E1 cells were cultured in αMEM containing 10% of heat-inactivated FBS with a change of medium every 2nd or 3rd day and then lifted by trypsin treatment when they reached confluence, followed by reseeding of a suitable ratio of the cells (1:3-1:5). To induce bone nodule formation the MC3T3-E1 cells were lifted by trypsin and reseeded in 24-well plates at a density of 75,000 cells/24-well, and then cultured in the presence of 50 μg/mL ascorbic acid and 10 mM β-glycerol-phosphate, for three weeks, with a medium change every 2nd or 3rd day.
Nodule formation was measured using Alizarin Red. After three weeks of culture the osteoblasts cultures were stopped by fixation in 3.7% formaldehyde in PBS for 20 minutes. The cells were stained in 40 mM Alizarin Red pH 4.2 for 10 minutes, and washed thoroughly. Digital histographs of representative areas of stained nodules were taken using an Olympus IX-70 light microscope equipped with an Olympus C5050 Zoom digital camera. Subsequently, the dye was extracted from the cells by incubation in 10% cetylpyridinium chloride for 15 minutes while shaking in the dark, and finally the absorbance at 561 nm was measured using an ELISA reader.

Test [2] deals with MC-3T3-E1 cells. Kind of test: Bone nodule formation by MC-3T3-E1 cells, Von Kossa staining. Format: cell-based, murine. Conditions: three weeks culture, BMP-2 at 10 ng/mL. As to the method:
as §1
Nodule formation was also measured by Von Kossa staining of the bone nodules. After stopping of the culture as above, the bone nodules were stained in 2.5% AgNO3 for 30 minutes under intense illumination. The cells were washed thoroughly in milliQ and the staining was further developed by incubation in 1% pyrogallol for 30 seconds. After washing in milliQ, the staining was fixed in 5% sodium thiosulphate for 5 minutes and washed again in milliQ. Finally, digital histographs of representative areas of stained nodules were taken using an Olympus IX-70 light microscope equipped with an Olympus C5050 Zoom digital camera.

B1: Bone Morphogenetic Protein 2 (protein, UniProt P12643 283-396, looked up)
Bone morphogenetic protein 2: QAKHKQRKRLKSSCKRHPLYVDFSDVGWNDWIVAPPGYHAFYCHGECPFPLADHLNSTNHAIVQTLVNSVNSKIPKACCVPTELSAISMLYLDENEKVVLKNYQDMVVEGCGCR
notes: positive control, known to induce bone formation
With B1, the “bone nodule formation measured using Alizarin Red” value with MC-3T3-E1 cells [1] was “significantly induced bone nodule formation”. Besides, in the test with MC-3T3-E1 cells [2], the “bone nodule formation, Von Kossa staining (qualitative)” value was “significantly induced bone nodule formation”.
